Results reported in ChEMBL document CHEMBL1131555 (Bioorg Med Chem Lett, 1998).

What was measured:
Progesterone receptor [1] = target: T1, Progesterone receptor (Homo sapiens, UniProt P06401)
T1 sequence (P06401 whole entry): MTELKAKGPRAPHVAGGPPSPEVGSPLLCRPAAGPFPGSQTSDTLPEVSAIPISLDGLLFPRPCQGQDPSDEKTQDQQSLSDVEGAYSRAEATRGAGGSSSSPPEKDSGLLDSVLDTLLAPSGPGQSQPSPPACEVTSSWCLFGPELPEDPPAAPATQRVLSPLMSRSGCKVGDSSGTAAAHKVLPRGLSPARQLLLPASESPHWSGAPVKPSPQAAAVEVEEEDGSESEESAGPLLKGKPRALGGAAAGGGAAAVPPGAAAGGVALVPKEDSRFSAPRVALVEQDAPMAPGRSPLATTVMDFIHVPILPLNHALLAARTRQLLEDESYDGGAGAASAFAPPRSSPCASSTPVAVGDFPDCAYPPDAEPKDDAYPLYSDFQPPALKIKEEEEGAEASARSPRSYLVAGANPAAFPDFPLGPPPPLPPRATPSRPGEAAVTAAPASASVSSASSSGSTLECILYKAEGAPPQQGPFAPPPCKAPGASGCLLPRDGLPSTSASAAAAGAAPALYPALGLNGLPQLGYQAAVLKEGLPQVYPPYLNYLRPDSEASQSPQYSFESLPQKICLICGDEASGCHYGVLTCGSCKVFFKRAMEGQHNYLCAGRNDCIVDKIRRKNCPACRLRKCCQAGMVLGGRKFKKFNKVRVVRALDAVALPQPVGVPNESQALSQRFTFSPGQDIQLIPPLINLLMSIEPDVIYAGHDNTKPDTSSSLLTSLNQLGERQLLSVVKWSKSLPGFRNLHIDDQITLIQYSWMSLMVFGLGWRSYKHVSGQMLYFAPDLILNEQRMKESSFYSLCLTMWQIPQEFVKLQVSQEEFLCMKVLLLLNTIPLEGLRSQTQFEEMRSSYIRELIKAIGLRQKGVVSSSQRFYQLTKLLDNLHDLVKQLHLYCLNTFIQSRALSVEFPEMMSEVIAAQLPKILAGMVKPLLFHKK

Progesterone receptor [2] = target: T1, Progesterone receptor; remark: listed apart in the source
Progesterone receptor [3] = target: T1, Progesterone receptor; remark: listed apart in the source

## CCCCC1Oc2ccc(OC)cc2-c2ccc3c(c21)C(C)=CC(C)(C)N3 (stereo not drawn)
Progesterone receptor [1]
  Ki: 3.5 nM
Progesterone receptor [2]
  EC50: 9.3 nM
Progesterone receptor [3]
  EC50: > 10000 nM
